# Results taken from patent publication US20240335569A1, “FIBROBLAST ACTIVATION PROTEIN INHIBITORS AND USE THEREOF” (3 B PHARMACEUTICALS GMBH, priority 2021, published 2024).
# Sequences of proteins named here, by UniProt entry; tags and fusion partners are left off. Residues count along the entry.
# UniProt P48147, whole entry: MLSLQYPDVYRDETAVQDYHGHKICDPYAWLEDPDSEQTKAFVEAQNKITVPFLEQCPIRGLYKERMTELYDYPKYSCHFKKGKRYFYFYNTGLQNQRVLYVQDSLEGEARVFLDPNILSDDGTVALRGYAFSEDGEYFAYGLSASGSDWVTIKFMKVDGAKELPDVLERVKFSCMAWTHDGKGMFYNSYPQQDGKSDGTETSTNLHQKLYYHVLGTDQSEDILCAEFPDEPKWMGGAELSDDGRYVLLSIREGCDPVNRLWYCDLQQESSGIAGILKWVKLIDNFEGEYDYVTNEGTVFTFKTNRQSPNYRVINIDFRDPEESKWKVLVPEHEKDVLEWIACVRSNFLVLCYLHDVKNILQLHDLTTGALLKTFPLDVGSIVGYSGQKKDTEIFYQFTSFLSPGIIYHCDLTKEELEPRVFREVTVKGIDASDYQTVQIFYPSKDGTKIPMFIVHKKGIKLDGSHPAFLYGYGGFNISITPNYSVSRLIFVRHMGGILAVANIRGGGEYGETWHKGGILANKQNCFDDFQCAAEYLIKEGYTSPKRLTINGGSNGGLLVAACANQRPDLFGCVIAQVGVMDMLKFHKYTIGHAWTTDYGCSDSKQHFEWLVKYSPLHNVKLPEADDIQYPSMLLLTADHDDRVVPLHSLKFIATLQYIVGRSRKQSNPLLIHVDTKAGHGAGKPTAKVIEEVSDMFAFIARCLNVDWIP
# UniProt P27487, whole entry: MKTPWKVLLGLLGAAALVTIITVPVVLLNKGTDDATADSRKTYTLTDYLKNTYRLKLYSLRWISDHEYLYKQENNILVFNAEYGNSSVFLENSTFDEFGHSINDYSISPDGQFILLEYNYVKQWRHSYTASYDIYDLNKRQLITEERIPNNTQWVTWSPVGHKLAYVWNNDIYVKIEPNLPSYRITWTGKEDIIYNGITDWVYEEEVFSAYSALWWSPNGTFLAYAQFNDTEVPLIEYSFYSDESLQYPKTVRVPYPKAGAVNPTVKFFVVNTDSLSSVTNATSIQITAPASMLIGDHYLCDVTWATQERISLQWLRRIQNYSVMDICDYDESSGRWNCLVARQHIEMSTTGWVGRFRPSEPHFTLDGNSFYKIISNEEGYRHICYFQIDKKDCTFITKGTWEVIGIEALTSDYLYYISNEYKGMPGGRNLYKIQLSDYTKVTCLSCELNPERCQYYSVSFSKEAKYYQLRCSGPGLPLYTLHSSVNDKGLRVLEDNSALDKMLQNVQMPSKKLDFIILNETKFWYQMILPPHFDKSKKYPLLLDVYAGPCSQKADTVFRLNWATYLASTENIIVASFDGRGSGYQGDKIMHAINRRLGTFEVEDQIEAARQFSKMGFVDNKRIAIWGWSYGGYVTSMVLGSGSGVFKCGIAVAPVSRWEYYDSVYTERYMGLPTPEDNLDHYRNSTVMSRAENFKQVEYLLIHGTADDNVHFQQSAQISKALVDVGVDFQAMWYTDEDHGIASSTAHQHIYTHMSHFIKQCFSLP
# UniProt Q12884, whole entry: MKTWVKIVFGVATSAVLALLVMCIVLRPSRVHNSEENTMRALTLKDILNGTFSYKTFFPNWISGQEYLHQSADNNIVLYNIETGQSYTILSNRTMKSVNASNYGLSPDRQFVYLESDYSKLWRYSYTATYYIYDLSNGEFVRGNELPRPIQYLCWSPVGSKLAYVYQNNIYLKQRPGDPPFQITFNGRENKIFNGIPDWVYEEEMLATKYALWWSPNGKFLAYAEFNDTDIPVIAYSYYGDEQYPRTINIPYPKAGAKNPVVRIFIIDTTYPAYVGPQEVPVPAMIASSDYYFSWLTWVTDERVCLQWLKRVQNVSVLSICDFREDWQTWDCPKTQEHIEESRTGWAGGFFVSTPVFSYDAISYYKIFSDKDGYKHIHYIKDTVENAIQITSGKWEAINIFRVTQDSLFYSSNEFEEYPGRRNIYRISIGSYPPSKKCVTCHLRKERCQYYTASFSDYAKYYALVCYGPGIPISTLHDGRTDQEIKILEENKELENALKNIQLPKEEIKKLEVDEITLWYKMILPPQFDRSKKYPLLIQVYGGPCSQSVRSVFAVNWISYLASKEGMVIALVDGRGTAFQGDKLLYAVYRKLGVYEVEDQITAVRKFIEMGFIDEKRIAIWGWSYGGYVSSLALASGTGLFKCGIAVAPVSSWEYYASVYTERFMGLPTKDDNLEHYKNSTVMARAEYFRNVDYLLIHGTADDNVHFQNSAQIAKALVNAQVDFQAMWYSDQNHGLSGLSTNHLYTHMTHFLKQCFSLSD
# UniProt Q12884, 26-760 limits assumed: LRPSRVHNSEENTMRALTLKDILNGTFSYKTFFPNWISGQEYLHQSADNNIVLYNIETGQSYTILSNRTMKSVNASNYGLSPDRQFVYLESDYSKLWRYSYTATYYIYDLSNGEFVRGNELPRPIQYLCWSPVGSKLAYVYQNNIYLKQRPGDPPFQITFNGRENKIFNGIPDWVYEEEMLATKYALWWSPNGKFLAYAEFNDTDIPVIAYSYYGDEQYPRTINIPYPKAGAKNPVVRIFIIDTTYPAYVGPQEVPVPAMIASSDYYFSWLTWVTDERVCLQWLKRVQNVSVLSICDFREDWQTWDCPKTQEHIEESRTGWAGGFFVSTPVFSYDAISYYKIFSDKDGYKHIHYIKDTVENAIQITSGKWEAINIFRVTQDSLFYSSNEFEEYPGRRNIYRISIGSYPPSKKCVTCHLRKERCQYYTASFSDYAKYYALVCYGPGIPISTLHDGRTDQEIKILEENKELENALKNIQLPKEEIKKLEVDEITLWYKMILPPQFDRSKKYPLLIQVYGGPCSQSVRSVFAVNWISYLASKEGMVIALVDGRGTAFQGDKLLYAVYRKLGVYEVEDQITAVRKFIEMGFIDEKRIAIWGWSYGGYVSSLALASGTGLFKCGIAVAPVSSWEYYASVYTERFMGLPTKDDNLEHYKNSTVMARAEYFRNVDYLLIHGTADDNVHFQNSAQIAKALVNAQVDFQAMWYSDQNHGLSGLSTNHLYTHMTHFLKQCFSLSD
# Tests used:
# recombinant human PREP = recombinant human PREP (Homo sapiens (Human), UniProt P48147); experiment: PREP protease activity assay; type: biochemical
# Recombinant human DPP4 = Recombinant human DPP4 (Homo sapiens (Human), UniProt P27487); experiment: DPP4 protease activity assay; type: biochemical
# Human recombinant FAP = Human recombinant FAP (Homo sapiens (Human), UniProt Q12884); experiment: FAP protease activity assay (human), FRET-based; type: biochemical
# [1] = target: FAP-expressing human WI-38 fibroblasts (Homo sapiens (Human), UniProt Q12884); experiment: FACS binding assay (competitive, Cy5-labeled 3BP-2935); details: FAP-expressing WI-38 fibroblasts
structure (smiles),measurement,setting,value
N#C[C@@H]1CCCN1C(=O)CNC(=O)c1ccnc2cc(-c3ccc(C(=O)O)cc3)ccc12,pIC50 (PREP),recombinant human PREP,<6
same,pIC50 (DPP4),Recombinant human DPP4,<6
same,pIC50 (Activity),Human recombinant FAP,8.7
same,pIC50 (FACS),[1],8.4
